Test results published in US9028669B2, “Process for producing reduced glutathione” (Kyowa Hakko Bio Co., Ltd., priority 2011, dated 2015).

Assay: Solubility of oxidized glutathione in water at each pH (HPLC quantification)
Format: physicochemical
Conditions: for solubility (FIG. 1): 25° C.
Protocol: A crystal of oxidized glutathione (monohydrate) was added to 100 ml of water and the mixture was stirred at 25° C. for 4 hr. After measurement of pH, the solution was separated and filtered, and the dissolved oxidized glutathione was quantified by high performance liquid chromatography (HPLC) under the following conditions. Then, the crystal of oxidized glutathione was added to 1 mol/L of aqueous sodium hydroxide solution, and the mixture was stirred for 4 hr or longer while glutathione crystal slightly remained undissolved. After measurement of pH, the solution was separated and filtered, and the concentration was measured in the same manner.
As the content, the concentration (g/L) of oxidized glutathione was quantified under the following HPLC conditions.
HPLC Conditions • column: Inertsil ODS-3 φ3×100 mm • column temperature: 35° C. • buffer: 3% methanol solution containing 0.2% sodium 1-heptanesulfonate, 6.8% potassium dihydrogen phosphate (adjusted to pH 3.0 with phosphoric acid) • flow rate: 0.5 mL/min • detector: UV detector (wavelength 210 nm)

## oxidized glutathione
At not less than pH 4.0 (pH raised with sodium hydroxide)
  solubility (FIG. 1): remarkably increased
At the isoelectric point, in water at ambient temperature (25° C.)
  saturated solubility of oxidized glutathione in water: not more than 20 g/L
Solution at pH 2.0-3.0 near the isoelectric point
  solubility (FIG. 1): lowest
